By UniProt entry, the sequences of proteins in these tests, tags left out.
UniProt P35499, whole entry: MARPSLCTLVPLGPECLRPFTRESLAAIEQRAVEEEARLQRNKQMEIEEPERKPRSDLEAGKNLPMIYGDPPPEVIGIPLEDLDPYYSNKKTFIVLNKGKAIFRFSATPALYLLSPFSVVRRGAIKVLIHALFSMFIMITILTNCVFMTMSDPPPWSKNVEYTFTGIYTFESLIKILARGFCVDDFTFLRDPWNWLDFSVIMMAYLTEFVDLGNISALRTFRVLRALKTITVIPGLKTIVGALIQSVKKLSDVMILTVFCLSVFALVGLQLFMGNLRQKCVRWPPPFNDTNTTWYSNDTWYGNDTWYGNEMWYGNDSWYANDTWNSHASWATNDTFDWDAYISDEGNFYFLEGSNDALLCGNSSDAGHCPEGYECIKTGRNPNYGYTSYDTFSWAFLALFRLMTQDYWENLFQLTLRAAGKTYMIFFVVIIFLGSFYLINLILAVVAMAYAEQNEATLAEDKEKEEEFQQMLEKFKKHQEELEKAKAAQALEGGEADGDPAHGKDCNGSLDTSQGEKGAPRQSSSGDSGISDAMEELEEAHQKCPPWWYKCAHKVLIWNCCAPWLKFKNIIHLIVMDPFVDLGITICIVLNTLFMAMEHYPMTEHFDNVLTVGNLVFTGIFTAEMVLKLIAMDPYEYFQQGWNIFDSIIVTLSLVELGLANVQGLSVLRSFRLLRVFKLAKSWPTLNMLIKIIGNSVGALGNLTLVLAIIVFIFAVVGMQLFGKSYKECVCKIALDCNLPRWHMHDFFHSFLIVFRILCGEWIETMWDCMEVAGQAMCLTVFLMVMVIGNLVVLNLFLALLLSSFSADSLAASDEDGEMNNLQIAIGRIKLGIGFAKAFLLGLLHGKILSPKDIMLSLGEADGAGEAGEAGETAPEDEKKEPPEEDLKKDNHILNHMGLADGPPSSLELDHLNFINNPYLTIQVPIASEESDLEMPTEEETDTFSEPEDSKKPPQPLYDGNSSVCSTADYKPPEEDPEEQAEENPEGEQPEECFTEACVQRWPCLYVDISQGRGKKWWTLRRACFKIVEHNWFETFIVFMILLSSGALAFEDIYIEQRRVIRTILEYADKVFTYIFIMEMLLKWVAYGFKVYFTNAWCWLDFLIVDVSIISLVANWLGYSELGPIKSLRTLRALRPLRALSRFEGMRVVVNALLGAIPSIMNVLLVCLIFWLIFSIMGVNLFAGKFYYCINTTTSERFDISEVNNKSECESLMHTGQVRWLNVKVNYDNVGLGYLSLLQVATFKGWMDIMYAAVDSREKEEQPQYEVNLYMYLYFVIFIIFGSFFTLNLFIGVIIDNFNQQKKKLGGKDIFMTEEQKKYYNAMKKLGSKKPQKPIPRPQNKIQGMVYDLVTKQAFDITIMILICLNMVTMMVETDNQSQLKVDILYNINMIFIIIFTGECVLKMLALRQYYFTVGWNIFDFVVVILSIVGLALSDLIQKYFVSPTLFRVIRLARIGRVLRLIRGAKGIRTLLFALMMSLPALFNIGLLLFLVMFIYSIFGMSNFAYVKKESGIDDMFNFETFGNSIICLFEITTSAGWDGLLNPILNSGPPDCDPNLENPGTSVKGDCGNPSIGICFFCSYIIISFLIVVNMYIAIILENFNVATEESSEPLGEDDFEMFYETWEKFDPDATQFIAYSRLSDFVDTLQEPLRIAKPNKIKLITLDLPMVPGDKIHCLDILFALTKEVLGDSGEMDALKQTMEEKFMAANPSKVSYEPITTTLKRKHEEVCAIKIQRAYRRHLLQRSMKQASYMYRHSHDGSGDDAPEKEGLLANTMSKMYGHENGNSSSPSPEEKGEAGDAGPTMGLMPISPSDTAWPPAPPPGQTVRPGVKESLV

In patent US20240409594A1, “PHOTOA[…] CHANNEL MODULATOR” (INSTITUT NATIONAL DE LA SANTÉ ET DE LA RECHERCHE MÉDICALE, priority 2021, published 2024):

Experiments:
hNaV1.4 = biological target: T1, hNaV1.4 (Homo sapiens, UniProt P35499); assay: Automated patch-clamp, hNaV1.4 current inhibition; format: cell-based; settings: caged JzTxV versus non-caged JzTxV
T1 construct: expressed in transfected cells; host or cells: HEK293

[1] = Dark stability in solution; format: physicochemical; settings: in the dark

Row | Structure (SMILES) | fold reduction in IC50, hNaV1.4 (hNaV1.4) | dark stability in solution [1]
1 | CC[C@H](C)[C@H](NC(=O)[C@@H](NC(=O)[C@H](CCCCN)NC(=O)[C@H](CCCNC(=N)N)NC(=O)[C@@H]1CSSC[C@@H]2NC(=O)[C@H](C)NC(=O)[C@H](CCCNC(=N)N)NC(=O)[C@H](CCCCN)NC(=O)[C@H](CO)NC(=O)[C@H](CC(=O)O)NC(=O)[C@@H]3CSSC[C@H](NC(=O)[C@H](CCCNC(=N)N)NC(=O)[C@H](CC(C)C)NC(=O)CNC(=O)[C@H](CCC(=O)O)NC(=O)[C@H](CSSC[C@H](NC(=O)[C@@H](N)Cc4ccc(O)cc4)C(=O)N[C@@H](CCC(N)=O)C(=O)N[C@@H](CCCCN)C(=O)N[C@@H](Cc4c[nH]c5ccccc45)C(=O)N[C@@H](CCSC)C(=O)N[C@@H](Cc4c[nH]c5ccccc45)C(=O)N[C@@H]([C@@H](C)O)C(=O)N3)NC2=O)C(=O)N[C@@H](CCCCNC(=O)OCc2cc(OC)c(OC)cc2[N+](=O)[O-])C(=O)N[C@@H](CC(C)C)C(=O)N[C@@H](Cc2c[nH]c3ccccc23)C(=O)N1)[C@@H](C)CC)C(N)=O [caged JzTxV] | 218 fold | –
2 | CC[C@H](C)[C@@H]1NC(=O)CNC(=O)[C@H](CC(C)C)NC(=O)[C@@H](NC(=O)CN)CSSC[C@@H]2NC(=O)[C@@H]3CSSC[C@@H](C(=O)N[C@@H](CCCCNC(=O)OCc4cc(OC)c(OC)cc4[N+](=O)[O-])C(=O)N[C@@H](Cc4ccc(O)cc4)C(=O)N[C@@H](CCC(N)=O)C(=O)N[C@H](C(=O)N[C@@H](CCCCN)C(N)=O)[C@@H](C)CC)NC(=O)[C@H](Cc4c[nH]c5ccccc45)NC(=O)[C@H](CCCNC(=N)N)NC(=O)[C@H]([C@@H](C)O)NC(=O)[C@H](CCCCN)NC(=O)[C@H](CCCNC(=N)N)NC(=O)[C@H](CO)NC(=O)[C@H](CSSC[C@H](NC(=O)[C@H](C)NC(=O)[C@H](CCCCN)NC(=O)[C@H](Cc4ccccc4)NC1=O)C(=O)N[C@@H](CC(N)=O)C(=O)N1CCC[C@H]1C(=O)N[C@@H](CO)C(=O)N[C@@H](CC(N)=O)C(=O)N[C@@H](CC(=O)O)C(=O)N[C@@H](CCC(N)=O)C(=O)N3)NC(=O)[C@H](C(C)C)NC(=O)[C@H](CC(C)C)NC(=O)[C@H](CCCCN)NC(=O)[C@H](CO)NC(=O)[C@H](CO)NC(=O)[C@H](CCCCN)NC2=O [caged HwTxIV-Nvoc] | – | > 1 week
